Measured values reported in ChEMBL document CHEMBL5236617, “Rapid Evolution of a Fragment-like Molecule to Pan-Metallo-Beta-Lactamase Inhibitors: Initial Leads toward Clinical Candidates” (J Med Chem, 2022).

Key:
[1] = Selectivity ratio of MITC50 for NDM-1 expressing Escherichia coli to IC50 for GST-tagged bacterial beta-lactamase […]
[2] = Selectivity ratio of MITC50 for IMP-1 expressing Serratia marcescens to IC50 for GST-tagged bacterial beta-lactamase IMP-1
[3] = Selectivity ratio of MITC50 for VIM-1 expressing Klebsiella pneumoniae to IC50 for GST-tagged bacterial beta-lactamase VIM-1
[4] = Inhibition of GST-tagged bacterial beta-lactamase IMP-1 expressed in Escherichia coli BL21(DE3) using CCF2-FA as substrate by fluorescence assay; set-up: species or system Bacteria

Selectivity ratio [2]	Selectivity ratio [3]	SMILES	Selectivity ratio [1]	IC50 [4] [µM]
14	43	NS(=O)(=O)c1nccc(-c2ccc(CO)cc2)c1-c1nn[nH]n1	15	
48		NS(=O)(=O)c1ccnc(-c2ccc(CO)cc2)c1-c1nn[nH]n1	63	
		NS(=O)(=O)c1cccc(-c2ccnc(CO)c2)c1-c1nn[nH]n1		2.53
